Tests used:
[1] = test system: MCF-7; assay: Proliferation assay, MCF-7; settings: read-out: MCF-7 IC50; comparison table; 4 days incubation, crystal violet
[2] = target: CDK2/CycE (Homo sapiens, UniProt P24941); assay: CDK2/CycE kinase assay; format: biochemical; settings: read-out: CDK2 IC50; comparison table; recombinant CDK2/CycE, histone IIIS substrate, 0.5 μm ATP
[3] = test system: H460; assay: Proliferation assay, H460; settings: read-out: H460 IC50; comparison table; 4 days incubation, crystal violet
[4] = test system: DU145; assay: Proliferation assay, DU145; settings: read-out: DU145 IC50; comparison table; 4 days incubation, crystal violet
[5] = test system: HCT116; assay: Proliferation assay, HCT116; settings: read-out: HCT116 IC50; comparison table; 4 days incubation, crystal violet

Row | SMILES | IC50 [1] [µM] | IC50 [2] [µM] | IC50 [3] [µM] | IC50 [4] [µM] | IC50 [5] [µM]
1 | O=C1Nc2ccccc2/C1=C1/Nc2ccccc2C1=NO | 6 | 0.9 |  |  | 
2 | Cc1ccc2c(c1)/C(=C1/Nc3ccccc3C1=O)C(=O)N2 | 1 | 3 | > 10 | > 10 | 10
3 | O=C1Nc2ccc(S(=O)(=O)O)cc2/C1=C1/Nc2ccccc2C1=O | > 10 |  | > 10 | > 10 | > 10

Source: US20020107404A1, “Sulfur-containing indirubin derivatives, their production and use” (Schering AG, priority 2000, published 2002)
